Amino acid sequences for entries named in this document (tags omitted).
UniProt Q15858, whole entry: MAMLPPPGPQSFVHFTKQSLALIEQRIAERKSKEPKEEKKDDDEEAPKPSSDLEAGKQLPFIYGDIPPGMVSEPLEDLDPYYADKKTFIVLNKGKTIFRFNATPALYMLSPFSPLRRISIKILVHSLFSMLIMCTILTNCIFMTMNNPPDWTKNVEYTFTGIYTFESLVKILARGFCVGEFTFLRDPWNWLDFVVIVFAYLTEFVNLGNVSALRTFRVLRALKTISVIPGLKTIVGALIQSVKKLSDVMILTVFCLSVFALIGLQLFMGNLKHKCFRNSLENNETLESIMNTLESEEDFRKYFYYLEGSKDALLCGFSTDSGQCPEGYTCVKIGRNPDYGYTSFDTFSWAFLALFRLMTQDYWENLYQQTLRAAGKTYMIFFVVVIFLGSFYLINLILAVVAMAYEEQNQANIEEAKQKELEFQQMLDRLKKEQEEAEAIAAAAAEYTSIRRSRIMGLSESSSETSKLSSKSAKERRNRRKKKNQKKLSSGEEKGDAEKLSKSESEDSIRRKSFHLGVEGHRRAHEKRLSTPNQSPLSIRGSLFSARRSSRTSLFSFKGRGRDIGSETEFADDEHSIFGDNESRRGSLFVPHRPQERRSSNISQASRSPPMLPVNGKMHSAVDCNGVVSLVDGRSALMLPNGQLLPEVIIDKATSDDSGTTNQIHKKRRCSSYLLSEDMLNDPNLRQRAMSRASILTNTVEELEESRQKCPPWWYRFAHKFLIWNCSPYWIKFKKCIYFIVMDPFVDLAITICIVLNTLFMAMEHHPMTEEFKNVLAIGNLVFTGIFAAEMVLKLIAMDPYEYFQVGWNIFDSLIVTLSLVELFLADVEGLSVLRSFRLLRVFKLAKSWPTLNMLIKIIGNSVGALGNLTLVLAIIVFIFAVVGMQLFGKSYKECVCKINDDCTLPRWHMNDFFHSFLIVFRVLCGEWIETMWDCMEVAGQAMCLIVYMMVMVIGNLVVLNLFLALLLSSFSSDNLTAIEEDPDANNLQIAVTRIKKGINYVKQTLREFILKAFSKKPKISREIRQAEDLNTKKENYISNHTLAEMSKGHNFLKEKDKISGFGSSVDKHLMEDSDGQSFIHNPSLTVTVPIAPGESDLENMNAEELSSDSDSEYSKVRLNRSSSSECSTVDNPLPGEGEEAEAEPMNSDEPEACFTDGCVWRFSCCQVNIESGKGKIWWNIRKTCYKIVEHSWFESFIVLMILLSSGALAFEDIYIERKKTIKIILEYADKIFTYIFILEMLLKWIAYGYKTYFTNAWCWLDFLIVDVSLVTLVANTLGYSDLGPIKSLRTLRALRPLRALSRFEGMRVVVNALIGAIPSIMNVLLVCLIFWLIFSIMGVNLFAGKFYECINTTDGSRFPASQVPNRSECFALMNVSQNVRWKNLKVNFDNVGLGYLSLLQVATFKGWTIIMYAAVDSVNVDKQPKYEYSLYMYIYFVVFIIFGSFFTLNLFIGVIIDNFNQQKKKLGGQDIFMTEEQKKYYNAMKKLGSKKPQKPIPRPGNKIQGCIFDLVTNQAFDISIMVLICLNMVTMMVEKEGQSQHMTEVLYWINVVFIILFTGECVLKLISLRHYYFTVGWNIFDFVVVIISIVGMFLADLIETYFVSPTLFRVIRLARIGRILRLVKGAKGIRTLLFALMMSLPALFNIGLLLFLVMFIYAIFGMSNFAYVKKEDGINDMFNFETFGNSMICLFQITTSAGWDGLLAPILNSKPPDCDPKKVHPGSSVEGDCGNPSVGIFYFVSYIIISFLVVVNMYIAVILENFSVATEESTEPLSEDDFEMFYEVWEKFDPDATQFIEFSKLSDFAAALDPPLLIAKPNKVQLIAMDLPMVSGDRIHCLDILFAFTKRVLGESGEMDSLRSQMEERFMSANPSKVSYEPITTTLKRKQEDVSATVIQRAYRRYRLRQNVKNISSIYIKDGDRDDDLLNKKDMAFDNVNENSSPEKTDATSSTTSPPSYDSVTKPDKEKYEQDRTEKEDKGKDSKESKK

In patent US11124550B2, “Proteinaceous molecules and methods of use” (priority 2015, dated 2021):

Molecular target: T1, hNav1.7 (Homo sapiens, UniProt Q15858)
T1 construct: expressed in transfected cells; host or cells: HEK293T
Assay: Automated planar whole-cell patch clamp (Patchliner), hSCN9A HEK293T cells
Type: cell-based
Conditions: concentrations tested up to 50 nM
Description: To characterize the functional activity of Hm1a and Hm1b, HEK293T cells stably transfected with either hSCN1A, hSCN2A, hSCN3A, hSCN5A, hSCN9A or hSCN10A as well as CHO cells stably transfected with hSCN4A or hSCN8A were used for whole-cell patch-clamp analysis with a high throughput automated planar patch-clamp technology.
HEK293T cells stably transfected with either hSCN1A, hSCN2A, hSCN3A, hSCN5A, hSCN9A or hSCN10A were maintained in Dulbecco's Modified Eagle's Medium Nutrient Mixture F-12 (Invitrogen, Carlsbad, Calif., USA) supplemented with 10% (v/v) foetal bovine serum (FBS) (Invitrogen), 0.9% Penicillin/Streptomycin (P/S) solution and 100 μg/mL hygromycin or 100 μg/mL neomycin. CHO cells stably transfected with hSCN4A or hSCN8A were maintained in Ham's F12 Nutrient Mixture (Invitrogen, Carlsbad, Calif., USA) supplemented with 10% (v/v) FBS, 0.9% P/S solution and 100 μg/mL hygromycin. All cells were grown in T75 flasks (BD Biosciences, San Jose, Calif., USA) to ˜70% confluency.
Patch-clamp recordings were conducted in the whole-cell configuration using a Patchliner® (Nanion Technologies, Munich, Germany). […]

CC(C)C[C@@H]1NC(=O)[C@H](Cc2ccc(O)cc2)NC(=O)[C@H](CCCNC(=N)N)NC(=O)[C@@H](NC(=O)[C@@H](N)CCC(=O)O)CSSC[C@@H]2NC(=O)[C@@H]3CSSC[C@@H](C(=O)N[C@@H](C)C(=O)N[C@@H](Cc4c[nH]c5ccccc45)C(=O)N[C@@H](CC(=O)O)C(=O)NCC(=O)N[C@H](C(=O)N[C@@H](Cc4ccccc4)C(=O)N[C@@H](CO)C(=O)O)[C@@H](C)O)NC(=O)[C@H](Cc4ccc(O)cc4)NC(=O)[C@H](CCCCN)NC(=O)[C@H](Cc4c[nH]c5ccccc45)NC(=O)[C@H](CC(=O)O)NC(=O)[C@H](CO)NC(=O)[C@H](CCCNC(=N)N)NC(=O)[C@H](CSSC[C@H](NC(=O)CNC(=O)CNC(=O)[C@H](Cc4ccccc4)NC1=O)C(=O)N[C@@H](CO)C(=O)N[C@@H](CO)C(=O)N[C@@H]([C@@H](C)O)C(=O)N[C@@H](CO)C(=O)N[C@@H](CC(=O)O)C(=O)N3)NC(=O)[C@H](CO)NC(=O)[C@H](CC(C)C)NC(=O)[C@H](Cc1c[nH]cn1)NC(=O)[C@H](CCCCN)NC2=O [Hm1a]
effect on hNav1.7 current: no effect
